Data: ChEMBL document CHEMBL1132189, “Three-dimensional quantitative structure-activity relationship analyses using comparative molecular field analysis and comparative molecular similarity indices analysis to elucidate selectivity differences of inhibitors binding to trypsin, thrombin, and factor Xa” (J Med Chem, 1999)

Biological target: Prothrombin (Bos taurus, UniProt P00735)
Experiment: Binding affinity towards thrombin

## CS(=O)(=O)N1CCN(C(=O)[C@H](Cc2cccc(C(=N)N)c2)NS(=O)(=O)c2ccc3ccccc3c2)CC1
  Ki: 3.3 nM
